Laboratory results as given in US7166688B1, “Chelation compositions” (LidoChem, Inc., priority 2000, dated 2007).

Legend:
[1] = one drop 17% zinc nitrate, one drop iron nitrate, 0.1 gram copper sulfate, 10 grams potassium phosphate in one liter water, compounds added drop wise until clear; 10 ml added to 100 ml water
[2] = Iron chelation, clear solution / precipitate test; assay type: physicochemical; details: five drops 1.8 M ferric nitrate and 10 grams potassium phosphate in one liter water, compound added drop wise until clear; 10 ml added to 1000 ml water

## potassium salt of succinic—2—aminoethanol, ethanolsuccinicamide [Example 2]
[1]
  precipitate formation on dilution and standing: No precipitates were formed
[2]
  precipitate formation on dilution and standing: No precipitates were formed

Like-named read-outs stand apart in the source and are kept apart here.
